# Source: patent US6906042B2, “Micelles” (Eisai Co., Ltd., priority 2000, dated 2005)
# Columns and labels:
# [1] = E5564 micelle hydrodynamic diameter before and after simulated I.V. infusion using administration equipment (DLS)
# [2] = Micelle hydrodynamic diameter of E5564 through NaOH dissolution, lactose phosphate buffer, freeze-drying and re-hydration
structure (smiles),measurement,setting,value
CCCCCC/C=C\CCCCCCCCCC(=O)N[C@H]1[C@H](OC[C@H]2O[C@H](OP(=O)(O)O)[C@H](NC(=O)CC(=O)CCCCCCCCCCC)[C@@H](OCCCCCCCCCC)[C@@H]2O)OC(COC)[C@@H](OP(=O)(O)O)[C@@H]1OCC[C@@H](CCCCCCC)OC (stereo partly shown) [Compound E5564],micelle hydrodynamic diameter change with added NaCl,24 hours after addition of 0.01 M NaCl,unchanged
same,micelle hydrodynamic diameter change with added NaCl,after 24 hours with addition of 0.03 M NaCl or greater,Changes in micelle hydrodynamic diameter were observed
same,micelle hydrodynamic diameter change with added NaCl,immediately after addition of up to 0.07 M NaCl,no immediately appreciable change
same,Mean Micelle Hydrodynamic Diameter (nm) by DLS,[1]; 0.14 mg/mL - 5.0 mL/hr - 30 minutes,8.7 nm
same,Mean Micelle Hydrodynamic Diameter (nm) by DLS,[1]; 0.14 mg/mL - control,7.7 nm
same,Mean Micelle Hydrodynamic Diameter (nm) by DLS,[1]; 0.5 mg/mL - 1.4 mL/hr - 30 minutes,7.5 nm
same,Mean Micelle Hydrodynamic Diameter (nm) by DLS,[1]; 0.5 mg/mL - control,7.5 nm
same,micelle hydrodynamic diameter,"[2]; aqueous sodium hydroxide solution, pH 10.1",7 nm
same,micelle hydrodynamic diameter,[2]; freeze-dried product re-hydrated with water,7 nm
same,micelle hydrodynamic diameter,"[2]; lactose containing phosphate buffer solution, pH 7-8",7 nm

# Read-outs that look alike come from different tables or passages of the source.
